EC50 data for one substance are collected here from paper PMC8924211 (Nature Communications, 2022).

Numbering of substitutions follows the chain as printed.

What all share (assay type): cell-based
Test [1] concerns the target T1, GAL2R (Homo sapiens, UniProt O43603).
T1 construct: expressed in transfected cells; host or cells: HEK293/Gα16
T1 sequence (O43603 1-387): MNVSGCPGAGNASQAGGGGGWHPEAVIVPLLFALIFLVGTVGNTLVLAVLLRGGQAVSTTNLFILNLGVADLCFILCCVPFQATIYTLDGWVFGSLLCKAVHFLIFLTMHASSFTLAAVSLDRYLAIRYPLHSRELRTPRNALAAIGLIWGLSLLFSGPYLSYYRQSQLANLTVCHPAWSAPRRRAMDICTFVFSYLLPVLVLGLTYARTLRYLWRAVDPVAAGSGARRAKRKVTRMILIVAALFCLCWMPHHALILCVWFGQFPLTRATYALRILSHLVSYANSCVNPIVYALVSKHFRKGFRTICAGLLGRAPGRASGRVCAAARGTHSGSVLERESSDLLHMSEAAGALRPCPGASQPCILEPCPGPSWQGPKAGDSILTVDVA
As to the kind of experiment: Calcium assay, HEK293/Gα16 cells, WT GAL2R. As to conditions: spexin, mean ± S.E.M.

Test [2] concerns the target T2, GAL2R mutants (Homo sapiens, UniProt O43603, Y164A).
T2 construct: expressed in transfected cells; host or cells: HEK293
T2 sequence (O43603 1-387 Y164A): T1 sequence (O43603 1-387) with Y164A
In words: Calcium assay, HEK293/Gα16 cells, GAL2R mutants. As to conditions: GAL2R Y1644.64A, spexin.

Test [3] addresses T3, GAL2R mutants (Homo sapiens, UniProt O43603, Y86A).
T3 construct: expressed in transfected cells; host or cells: HEK293
T3 sequence (O43603 1-387 Y86A): T1 sequence (O43603 1-387) with Y86A
As to the kind of experiment: Calcium assay, HEK293/Gα16 cells, GAL2R mutants. As to conditions: GAL2R Y862.65A, spexin.

The target in test [4] is T4, GAL2R mutants (Homo sapiens, UniProt O43603, I85A).
T4 construct: expressed in transfected cells; host or cells: HEK293
T4 sequence (O43603 1-387 I85A): T1 sequence (O43603 1-387) with I85A
In words: Calcium assay, HEK293/Gα16 cells, GAL2R mutants. The settings on record: GAL2R I852.64A, spexin.

Test [5] concerns the target T5, GAL2R mutants (Homo sapiens, UniProt O43603, Q82A).
T5 construct: expressed in transfected cells; host or cells: HEK293
T5 sequence (O43603 1-387 Q82A): T1 sequence (O43603 1-387) with Q82A
As to the kind of experiment: Calcium assay, HEK293/Gα16 cells, GAL2R mutants. The settings on record: GAL2R Q822.61A, spexin.

Test [6] concerns the target T6, GAL2R mutants (Homo sapiens, UniProt O43603, R184A).
T6 construct: expressed in transfected cells; host or cells: HEK293
T6 sequence (O43603 1-387 R184A): T1 sequence (O43603 1-387) with R184A
As to the kind of experiment: Calcium assay, HEK293/Gα16 cells, GAL2R mutants. The settings on record: GAL2R R1845.35A; spexin, HEK293/Gα16; mean ± S.E.M.

As for spexin, the EC50 (commonly the concentration needed to bring the measured effect to its halfway point) is 195 ± 71 nM in test [1]; “no response” in test [2] (replicate 1); “no response” in test [2] (replicate 2); “no response” in test [2] (replicate 3); “no response” in test [3] (replicate 1); “no response” in test [3] (replicate 2). For the same substance, the EC50 entry in test [3] (replicate 3), in test [4] (replicate 1), in test [4] (replicate 2), in test [4] (replicate 3), in test [5] (replicate 1) and in test [5] (replicate 2) was “no response” throughout. In addition, the EC50 result in test [5] (replicate 3) was “no response”; in test [6], 3980 ± 3300 nM.
